Among the data in PubChem BioAssay AID1777 (Sanford-Burnham Center for Chemical Genomics, 2009) are activation values, retold here.

Protein sequences, listed by entry. Tags and fused reporters are not part of them. Lines headed by an entry give the natural chain unless they say otherwise; changes in a name come on top.
UniProt P41145: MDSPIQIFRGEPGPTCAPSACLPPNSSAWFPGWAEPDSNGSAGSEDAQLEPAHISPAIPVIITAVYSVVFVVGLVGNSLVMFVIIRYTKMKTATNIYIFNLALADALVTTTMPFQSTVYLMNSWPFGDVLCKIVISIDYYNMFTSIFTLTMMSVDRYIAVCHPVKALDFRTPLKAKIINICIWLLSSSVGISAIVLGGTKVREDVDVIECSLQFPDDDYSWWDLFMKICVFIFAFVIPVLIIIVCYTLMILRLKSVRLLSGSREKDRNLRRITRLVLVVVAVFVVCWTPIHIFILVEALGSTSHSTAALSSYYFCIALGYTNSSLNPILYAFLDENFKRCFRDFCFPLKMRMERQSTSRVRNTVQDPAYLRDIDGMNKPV

This is one part of the list. Results with a measured potency or affinity are listed apart. Calls of active or inactive are those of the source. Cut-off read from the data, not from the text of the source: active = activation above about 50% (passing the limit was not always enough); inactive = the rest.

The test concerns the target Kappa-type opioid receptor (Homo sapiens) (UniProt P41145). The experiment in a line: kappa opioid receptor activators – cell-based, luminescence, uHTS, primary screen (AID 1777). To be noted: KOR beta-arrestin recruitment, at 10 µM, active compounds read high. (In general: Recruitment of arrestin is a read-out of receptor activation apart from second messengers.)
As for `CC(=O)OCCNC(=O)Cn1cnc2c1c(=O)n(C)c(=O)n2C`, the activation was inactive: -2.4%.
With `CCCCNC(=O)Cn1c(=O)n(C)c2ccccc21`, the activation is inactive: 0.7%.
The figure for `O=C(Cn1cnc2ccccc21)N/N=C/c1cccc([N+](=O)[O-])c1` is inactive: 0.7%; for `NC(=O)Nc1ccc([As](=O)(O)O)cc1` it is inactive: 2.1%.
As for `CC1Cc2ccccc2N1C(=O)CSc1nc2ccccc2n1CC(=O)N1CCOCC1` (configuration not stated), the activation is inactive: -0.8%.
As for `CC(C)NC(=S)N1CCn2c(nc3ccccc32)C1`, the activation was inactive: 2.6%.
In the case of `Nc1nc2ccccc2n1CCN1CCCC1` it was inactive: -1.5%; in that of `O=C(CCCCCNC(=O)N1CCn2c1nc1ccccc12)NCc1ccc(Cl)cc1`, inactive: -6.1%; in that of `Cc1nn2c3ccccc3n(CCN3CCCCC3)c2nc1=O`, inactive: 5.6%.
Take `FC(F)(F)c1ccc2c(c1)ncn2C1CCN(Cc2nnnn2C2CCCCC2)CC1`: the activation is inactive: -3.4%.
Regarding `CCOP1(=S)c2c(C)nn(CCC#N)c2N=C(c2ccc(F)cc2)N1C` (configuration not stated), the activation was inactive: -4.4%.
For `Cn1c(=O)c2c(nc(CN3CCN(c4ccccc4F)CC3)n2CCN2CCOCC2)n(C)c1=O`, the activation was inactive: -3.3%.
With `Fc1ccc2c(c1)nnn2C1CCN(Cc2c(Cl)cccc2Cl)CC1`, the activation was inactive: -5.5%.
For `CC(C)[C@H](NC(=O)N1CCn2c1nc1ccccc12)C(=O)NCc1ccco1`, the activation was inactive: -4.8%.
On to `COc1ccc(CNC(=O)[C@H](CCSC)NC(=O)N2CCn3c2nc2ccccc23)cc1`, for which the activation is inactive: -3.4%.
In the case of `CCOC(=O)c1ccc(N2C(=O)CC(N3CCC(Nc4ccc(F)cc4)CC3)C2=O)cc1` (configuration not stated) it was inactive: -6.3%; in that of `O=C(Cn1cnc2ccccc21)N/N=C/c1ccccc1[N+](=O)[O-]`, inactive: 5.8%; in that of `O=C(CSc1nc2ccccc2n1CC(=O)N1CCCC1)Nc1nccs1`, inactive: -3.3%.
For `O=C(Nc1ccccc1)N1CCn2c1nc1ccccc12`, the activation was inactive: -4%.
Take `CCc1cccc(C)c1NC(=O)Cn1c(NCCO)nc2ccccc21`: the activation is inactive: -0.6%.
In the case of `Cc1ccc2c(c1)C1CN(C)CCC1N2C(=S)NC(=O)c1ccc(Br)cc1` (configuration not stated) it was inactive: -7.1%.
The figure for `O=[N+]([O-])c1ccc2c(c1)nnn2O` is inactive: 4.2%; for `O=P(Nc1nccs1)(c1ccccc1)c1nc2ccccc2s1` (configuration not stated) it is inactive: -0.5%; for `Cn1c(=O)c2c(ncn2CC(=O)N2CCN(S(=O)(=O)c3ccc(Cl)cc3)CC2)n(C)c1=O` it is inactive: -0.1%.
As to `CCN(CC)CCn1c(C)nc2ccccc21`, the activation is inactive: 6%.
As to `Cc1ccccc1NC(=O)Cn1c(NCC(C)O)nc2ccccc21` (configuration not stated), the activation was inactive: 1.7%.
In the case of `O=P(Nc1nccs1)(Oc1ccccc1)Oc1ccccc1` it was inactive: 0.4%; in that of `CCc1nc2ccccc2n1CC(=O)Nc1cc(C)on1`, inactive: 0.8%; in that of `CC(C)c1ccc(NC(=O)C2CC(=O)Nc3nc4ccccc4n32)cc1` (configuration not stated), inactive: 5.3%.
For `N#Cc1ccc(NC(=O)Cn2c3[n+](c4ccc(C(F)(F)F)cc42)CCCCC3)cc1`, the activation was inactive: -0.7%.
Take `O=C(Nc1nc2ccccc2n1CCN1CCOCC1)c1ccc(Cn2cc([N+](=O)[O-])cn2)o1`: the activation is inactive: 6.6%.
For the compound `CCC(C)[C@H](NC(=O)N1CCn2c1nc1ccccc12)C(=O)NCCc1ccc(OC)c(OC)c1` (some centres not stated), the activation is inactive: 0.6%.
For `Cn1c(=O)n(CC(=O)Nc2ccc(F)cc2)c2ccccc21`, the activation is inactive: -3.4%.
On to `CC(C)N(C(=O)Cn1c(SCC(=O)N2CCN(c3ccccc3)CC2)nc2ccccc21)C(C)C`, for which the activation is inactive: 0.3%.
Consider `CCOC(=O)c1cccc(NC(=O)Cn2c(CC(=O)N3CCCC3)nc3ccccc32)c1`, for which the activation is inactive: -4.3%.
Regarding `C/C(=N\NC(=O)Cn1c(-c2ccccn2)nc2ccccc21)c1cccc(O)c1`, the activation is inactive: -7.2%.
In the case of `CCOP1(=S)c2c(C)nn(CCC#N)c2N=C(c2ccccc2F)N1C` (configuration not stated), the activation was inactive: 0.7%.
In the case of `CCN1CCC(Nc2ccnc3cc(Cl)ccc23)CC1`, the activation was inactive: 0.3%.
Turning to `CS(=O)(=O)c1cc([N+](=O)[O-])c2no[n+]([O-])c2c1`, the activation was inactive: 1.7%.
In the case of `CCC(=O)NC(/C=C/c1ccccc1)c1cc([N+](=O)[O-])c2cccnc2c1O` (configuration not stated), the activation is inactive: -6%.
As for `Cn1c(=O)c2c(ncn2CC(=O)Nc2ccc3c(c2)OCO3)n(C)c1=O`, the activation is inactive: 3.4%.
On to `Cc1ccc(/C=N\NC(=O)Cn2c(C)nc3ccccc32)o1`, for which the activation is inactive: -0.7%.
With `O=C(Cn1cnc2ccccc21)N1CCc2ccccc21`, the activation is inactive: -10.4%.
Regarding `O=C1NCN(c2ccccc2)C12CCN(c1nnnn1-c1ccccc1)CC2`, the activation is inactive: 0.2%.
Regarding `CN(C)C(=O)Cn1c(SCC(=O)N2CCCc3ccccc32)nc2ccccc21`, the activation is inactive: 3.8%.
For the compound `CCN(Cc1ccccc1)C(=O)Cn1cnc2c1c(=O)n(C)c(=O)n2C`, the activation was inactive: -1.7%.
As for `CCN(CC)CCn1c(=N)n(CC(O)COc2ccccc2)c2ccccc21` (configuration not stated), the activation is inactive: 1.7%.
In the case of `C[C@H](NC(=O)N1CCn2c1nc1ccccc12)C(=O)NCc1ccc2c(c1)OCO2` it was inactive: 2%; in that of `COC(CNC(=O)CC1C(=O)N(Cc2ccccc2)C(C)c2nc3ccccc3n21)OC` (configuration not stated), inactive: 4.6%.
The figure for `Fc1ccc2c(c1)nnn2C1CCN(Cc2nnnn2C2CCCCC2)CC1` is inactive: 26.8%; for `N=c1n(CCN2CCOCC2)c2ccccc2n1CC(O)COc1ccccc1` (configuration not stated) it is inactive: 4.8%.
Consider `NC(=O)CC(NC(=O)Cc1cccc2ccccc12)c1ccc(NC2CCN(Cc3ccccc3)CC2)c([N+](=O)[O-])c1` (configuration not stated), for which the activation is inactive: 1.9%.
For `NNC(=O)Cn1c(COc2ccc(Cl)cc2)nc2ccccc21`, the activation is inactive: 1.9%.
With `COc1cccc(C(=O)CSc2nc3ccccc3n2CC(=O)N(C(C)C)C(C)C)c1`, the activation is inactive: -4.3%.
Regarding `CC(C)Sc1nc2ccccc2n1CC(=O)NCc1ccc2c(c1)OCO2`, the activation is inactive: -1.6%.
The figure for `Cn1c(=O)n(Cc2ccc(F)cc2)c(=O)c2c1nc1n2CCN1Cc1ccco1` is inactive: -0.4%; for `CCOC(=O)CNC(=S)N1CCn2c(nc3ccccc32)C1` it is inactive: -2%; for `O=C(Cn1c(-c2ccccn2)nc2ccccc21)N/N=C/c1cccnc1` it is inactive: 0.3%.
In the case of `CCOC(=O)C1CCN(C(=O)CC2C(=O)N(Cc3ccccc3)C(C)c3nc4ccccc4n32)CC1` (configuration not stated), the activation was inactive: 1.9%.
As for `Cc1nc2ccccc2n1CC(=O)NCc1ccccc1`, the activation is inactive: -1.6%.
`Cn1c(=O)c2c(ncn2CC(=O)N/N=C/C=C/c2ccco2)n(C)c1=O`: the activation was inactive: 0.1%.
For the compound `Cn1c(=O)c2c(ncn2CC(=O)N/N=C/c2cn[nH]c2-c2ccc(F)cc2)n(C)c1=O`, the activation was inactive: -1.4%.
With `O=C(C1CCN(S(=O)(=O)c2cnc[nH]2)CC1)N1CCn2c1nc1ccccc12`, the activation is inactive: -0.8%.
On to `O=C(Cn1cnc2ccccc21)N/N=C/c1ccc([N+](=O)[O-])cc1`, for which the activation was inactive: -5.3%.
With `O=C(O)COc1ccc([As](=O)(O)O)cc1[N+](=O)[O-]`, the activation was inactive: -4.5%.
In the case of `Nc1ccccc1[As](=O)(O)c1ccccc1` it was inactive: 2.1%; in that of `Nc1nonc1-c1nc2ccccc2n1CC(=O)N/N=C/c1ccc(-c2cccc(C(=O)O)c2)o1`, inactive: -2.2%.
Consider `Cc1ccc2c(c1)C1CN(C)CCC1N2C(=O)c1cn(-c2ccccc2)nc1-c1ccccc1` (configuration not stated), for which the activation is inactive: -4.1%.
Consider `CCOC(=O)c1ccccc1NC(=O)Cn1cnc2c1c(=O)n(C)c(=O)n2C`, for which the activation was inactive: -4.4%.
Take `NC(=O)Cn1c(-c2nonc2N)nc2ccccc21`: the activation is inactive: -2.5%.
With `COCCN1CCn2c(nc3cc(NC(=O)NC4CCCCC4)ccc32)C1`, the activation is inactive: 2.9%.
On to `CC(c1ccccc1)N1CCn2c(nc3cc(NC(=O)c4cccs4)ccc32)C1` (configuration not stated), for which the activation is inactive: 0%.
As for `O=C1CC(N2CCC(n3c(=O)[nH]c4ccccc43)CC2)C(=O)N1c1ccc(F)cc1` (configuration not stated), the activation is inactive: -3.4%.
Consider `CC(C)N(C(=O)Cn1c(SCC(=O)NCc2ccc3c(c2)OCO3)nc2ccccc21)C(C)C`, for which the activation was inactive: -4.1%.
On to `CCc1ccccc1NC(=O)CSc1nc2ccccc2n1CC(=O)N(C)C`, for which the activation was inactive: -1.3%.
Consider `N=c1n(CCN2CCOCC2)c2ccccc2n1Cc1ccccc1Br`, for which the activation was inactive: 6%.
As to `O=S(=O)(Nc1ccc2c(c1)nc1n2CCN(Cc2ccccc2)C1)c1ccc(Cl)cc1`, the activation was inactive: 46.6%.
In the case of `O=C(Cn1cnc2ccccc21)N/N=C/c1cccs1` it was inactive: -0.4%.
In the case of `CN(C)CCn1cnc2c1c(=O)[nH]c(=O)n2Cc1ccccc1` it was inactive: -3%; in that of `Cc1ccc2c(c1)C1CN(C)CCC1N2C(=O)c1ccc(Br)o1` (configuration not stated), inactive: 1.2%.
The figure for `COC(=O)CSc1nc2ccccc2n1CC(=O)N(C(C)C)C(C)C` is inactive: -2.5%.
For the compound `Cc1ccc2c(c1)C1CN(C)CCC1N2C(=O)/C(C#N)=C/c1ccc2c(c1)OCO2` (configuration not stated), the activation was inactive: 1.7%.
As to `O=P1(Nc2ncccn2)COc2ccccc2OC1`, the activation was inactive: 4.1%.
In the case of `Cn1c(=O)[nH]c(=O)c2c1nc(N1CCOCC1)n2CCN1CCOCC1` it was inactive: -7.8%; in that of `CCN(CC)C(=O)N1CCn2c(nc3ccccc32)C1`, inactive: -1.9%; in that of `COc1ccccc1N1CCN(C(=O)Cn2cnc3c2c(=O)n(C)c(=O)n3C)CC1`, inactive: -1.2%.
As for `Cn1c(=O)c2c(ncn2CC(=O)Nc2ccc(Cl)cc2Cl)n(C)c1=O`, the activation was inactive: 2.7%.
In the case of `Cn1c(=O)[nH]c(=O)c2c1nc(CN1CCN(c3cccc(Cl)c3)CC1)n2CCN1CCOCC1`, the activation was inactive: -4.1%.
Regarding `O=C(Cn1c(-c2ccccc2Cl)nc2ccccc21)Nc1cccc(Cl)c1`, the activation was inactive: 2.5%.
As for `Cn1c(=O)c2ncn(CC(=O)NCCOCc3ccccc3Cl)c2n(C)c1=O`, the activation was inactive: -3%.
Turning to `Cn1c(=O)c2c(ncn2CC(=O)Nc2ccccc2Sc2ccccc2)n(C)c1=O`, the activation is inactive: 6.6%.
With `Nc1cccc([As](=O)(O)c2ccccc2)c1`, the activation was inactive: -1.8%.
